Ab-14 heavy chain CDR variants: yeast mating affinities

Binding partner: SARS-CoV-2 spike HR2 peptide, sequence PDVDLGDISGINAS.

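The starting antibody came from a phage panning campaign against this peptide. In library AAYL49, one, two or three CDR residues were substituted; doubles and triples were drawn at random. In AlphaSeq, yeast of one mating type display the scFv and yeast of the other type display the target. Binding brings cells together so that they mate, and sequencing counts the barcode pairs among the diploids. A regression on co-assayed BCL2-family reference pairs converts the normalised counts of each replicate to an apparent Kd. There are three technical replicates.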

Parent: Ab-14, a human scFv built as VH, a (GGGGS)3 linker, VL. Only the CDRs of the heavy chain vary.
VH: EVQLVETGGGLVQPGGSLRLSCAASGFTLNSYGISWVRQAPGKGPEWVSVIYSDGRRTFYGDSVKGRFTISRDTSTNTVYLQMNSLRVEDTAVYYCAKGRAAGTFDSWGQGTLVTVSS
VL: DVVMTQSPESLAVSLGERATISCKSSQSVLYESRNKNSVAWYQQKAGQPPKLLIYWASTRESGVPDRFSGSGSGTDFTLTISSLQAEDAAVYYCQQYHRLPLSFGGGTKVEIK

Substitutions are numbered in sequence along the VH above, starting at 1 (not Kabat). Every variant below is changed at T104 of the VH (sequential numbering). Each Kd is an estimate from the mating assay, the geometric mean of the replicates in which the pair was seen; lower is stronger. Where no diploid with the target was found in any replicate, the entry reads "nd": below detection, most likely a poor binder, though not proof of it. In this assay the parent's reference entry averaged 4.4 nM; its copy inside this library read 13 µM (one replicate of three).

* V64R/T104K: 34 µM (3 of 3 replicates; controls 4 of 9)
* G99A/A101I/T104H: 1.5 µM (1 of 3 replicates; controls 0 of 9)
* F59A/A101G/T104K: nd (0 of 3 replicates; controls 0 of 9)
* G26R/G103E/T104N: nd (0 of 3 replicates; controls 0 of 9)
* N30K/G33K/T104F: 88 µM (1 of 3 replicates; controls 2 of 9)
* T58L/T104Q/D106K: 150 µM (1 of 3 replicates; controls 0 of 9)
* R57Y/G61S/T104N: 8.7 µM (1 of 3 replicates; controls 1 of 9)
* D62V/A101R/T104D: nd (0 of 3 replicates; controls 0 of 9)
* Y32R/R56N/T104F: nd (0 of 3 replicates; controls 2 of 9)
* G33L/D54R/T104W: nd (0 of 3 replicates; controls 0 of 9)
* G55N/R56F/T104W: nd (0 of 3 replicates; controls 4 of 9)
* G26H/T104F/D106F: 640 nM (1 of 3 replicates; controls 1 of 9)
* T58C/T104Q/F105V: 18 µM (3 of 3 replicates; controls 1 of 9)
* T104H: 20 nM (3 of 3 replicates; controls 1 of 9)
* G55C/R100C/T104R: nd (0 of 3 replicates; controls 1 of 9)
* N30D/S63H/T104W: nd (0 of 3 replicates; controls 0 of 9)
* G55L/G99P/T104A: nd (0 of 3 replicates; controls 0 of 9)
* V50W/G61K/T104K: nd (0 of 3 replicates; controls 0 of 9)
* Y32L/T104Y: 25 µM (1 of 3 replicates; controls 0 of 9)
* G33N/Y60T/T104L: 2.7 µM (1 of 3 replicates; controls 1 of 9)
* G33A/D62N/T104E: 25 µM (3 of 3 replicates; controls 6 of 9)
* V50I/I51N/T104P: 880 nM (2 of 3 replicates; controls 0 of 9)
* G61T/G103M/T104I: 50 nM (3 of 3 replicates; controls 0 of 9)
* G26R/G61T/T104S: 43 nM (3 of 3 replicates; controls 0 of 9)
* T104C/D106P/S107W: 2.3 nM (3 of 3 replicates; controls 1 of 9)
* Y60F/S63C/T104Y: nd (0 of 3 replicates; controls 0 of 9)
* D54H/T104D/F105H: nd (0 of 3 replicates; controls 2 of 9)
* G33E/G103T/T104G: 4.9 µM (1 of 3 replicates; controls 1 of 9)
* T58L/R100E/T104E: nd (0 of 3 replicates; controls 0 of 9)
* G55E/K65S/T104R: nd (0 of 3 replicates; controls 0 of 9)
* T104H/D106P/S107F: nd (0 of 3 replicates; controls 0 of 9)
* R57P/Y60N/T104H: 5.3 µM (2 of 3 replicates; controls 4 of 9)
* I51Y/D62P/T104W: 1.9 µM (1 of 3 replicates; controls 4 of 9)
* N30H/K65E/T104K: nd (0 of 3 replicates; controls 1 of 9)
* R56K/G99T/T104R: 6.7 µM (2 of 3 replicates; controls 2 of 9)
* Y32G/A101H/T104A: nd (0 of 3 replicates; controls 0 of 9)
* D54A/R100Q/T104F: 14 µM (2 of 3 replicates; controls 1 of 9)
* K65F/T104I/F105N: nd (0 of 3 replicates; controls 0 of 9)
* R56I/A101T/T104R: nd (0 of 3 replicates; controls 0 of 9)
* F27N/I34E/T104V: 12 µM (1 of 3 replicates; controls 0 of 9)
* I34S/R57A/T104K: 17 µM (2 of 3 replicates; controls 3 of 9)
* L29W/F59V/T104N: nd (0 of 3 replicates; controls 0 of 9)
* Y32E/T104C/D106W: 23 nM (3 of 3 replicates; controls 4 of 9)
* S53V/T104C: nd (0 of 3 replicates; controls 0 of 9)
* Y60A/T104V: 1.2 µM (3 of 3 replicates; controls 1 of 9)

Extract of 2 entries:

* G33A/D62N/T104E = 25 µM (3 of 3 replicates; controls 6 of 9)
* D54H/T104D/F105H = nd (0 of 3 replicates; controls 2 of 9)

Empty control strains, which show no peptide, gave a signal in 15% of pairings with library AAYL49; the median was 11 µM and 95% of these signals were weaker than 680 nM. No background was subtracted. The control count says in how many pairings with the empty strains this scFv gave a signal.

From the AlphaSeq antibody data of Engelhart et al. 2022 (doi:10.1038/s41597-022-01779-4), copy in the FLAb collection.